One compound from US5877026A, “Analgesic peptides from venom of Grammostola spatulata and use thereof” (priority 1998, dated 1999) can be followed below.

The subject of experiment [1] is Sprague Dawley rats. The settings on record: rat, in vivo.
The subject of experiment [2] is opioid receptors. Description: Opioid receptor testing (opioid antagonist pretreatment). In kind it is in vivo, rat. The settings on record: 3 μg i.th. How it is done: Animals were then tested in the tail flick test (Example 3) and von Frey tests (Example 5).

`CN1CC[C@]23c4c5ccc(O)c4O[C@H]2[C@@H](O)C=C[C@H]3[C@H]1C5` [morphine, reference compound]: in experiment [1], the “shift in the dose response curve, morphine-treated versus saline vehicle” value was 300 ×. Besides, the “effect of intrathecal naloxone on analgesic response” value in experiment [2] (naloxone 50 μg i.th.) is given as “reversal”. Besides, in experiment [2] (naloxone 10mg/kg subcutaneous, tail flick and von Frey tests), the “effect of naloxone pretreatment on analgesic effect” value is listed as “completely antagonized”.
